Yeast mating assay 1: variants of the scFv Ab-14

All variants were tested on one target, the spike HR2 peptide PDVDLGDISGINAS (SARS-CoV-2).

Parent scFv Ab-14: VH joined to VL by a 15-residue (Gly4Ser)3 linker. Changes lie in the heavy chain CDRs alone.
VH: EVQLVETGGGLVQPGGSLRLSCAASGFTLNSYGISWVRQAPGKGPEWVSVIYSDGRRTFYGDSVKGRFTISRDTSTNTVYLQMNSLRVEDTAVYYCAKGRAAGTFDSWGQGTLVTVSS
VL: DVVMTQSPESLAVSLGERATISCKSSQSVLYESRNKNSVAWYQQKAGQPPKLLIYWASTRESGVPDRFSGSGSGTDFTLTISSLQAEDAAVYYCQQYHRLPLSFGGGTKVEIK

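Phage display of a naive human antibody library on the peptide gave the parent. Variants in AAYL49 differ from the parent at up to three CDR positions; double and triple changes were sampled at random. AlphaSeq pools MATa yeast showing the antibodies with MATalpha yeast showing the peptide. After mating in shaken culture at 30 °C for 16 h, diploids were selected and their barcode pairs sequenced. Read counts were normalised to the haploid input and turned into Kd by a linear fit to BCL2-family pairs of known affinity, for each replicate. The assay was run in three technical replicates.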

Each variant is given by its three heavy chain CDRs, as the data file delimits them; those of the parent are GFTLNSYGIS, VIYSDGRRTFYGDSVK, GRAAGTFDS. The read-out is the apparent dissociation constant on a log10 scale (nM): the lower, the stronger. Replicates are averaged; those with no signal do not enter the mean. A pair that was not seen in that replicate is written "nd"; this usually means weak binding, but a binder can also be missed. For reference, the parent read 0.65 as the reference entry and 4.11 (one replicate of three) as a member of this library.

CDR-H1 | CDR-H2 | CDR-H3 | log10 Kd, replicates | log10 Kd (nM), mean | control signals
GFTLNSYGFS | VIYSDGRRTFDGDSVK | GRAAGTFDM | 5.79 / 3.51 / 4.51 | 4.60 | 2 of 9 (3.87)
GFTLNSYGIS | VIYSDGRRTFYSDSEK | GRAAGTFDS | 4.26 / 3.48 / 3.62 | 3.79 | 3 of 9 (3.20)
WLTLNSYGIS | VIYSDGRRTFYGDSVK | TRAAGTFDS | nd / nd / nd | nd | 1 of 9 (4.79)
GFTLNSYGIS | VIYSDGTRTFYGDSVK | GDAAGTFWS | nd / nd / nd | nd | 1 of 9 (2.83)
GFTLNSCGIS | VIYSDGRRTFYGRSVK | GRAAGTFDS | 4.98 / 4.07 / nd | 4.52 | 2 of 9 (4.25)
GFTLNSYGIS | VIYSDGRRTFYGGSVC | GFAAGTFDS | 2.81 / 3.12 / 2.67 | 2.87 | 0 of 9
GTTLNSYGIS | VIYDDGRRTFYGDSVK | GRAAGTFDH | nd / 3.55 / nd | 3.55 | 2 of 9 (4.41)
GKTLNYYGIS | VIYSDGRRTFYGDSVK | GRAAGTLDS | 1.00 / 1.17 / 1.30 | 1.16 | 0 of 9
GFTLNSYGLS | VIYSDGRRTFYGDSVK | GRAAGTFDS | nd / nd / nd | nd | 1 of 9 (3.58)
GFTLNSFGIS | VIYSDGSRTFYGDSVK | GRAAGTFWS | 1.88 / 1.90 / 2.24 | 2.00 | 1 of 9 (3.48)
GFTLNSYPIC | VIYSDGRRTFYGDSYK | GRAAGTFDS | nd / nd / nd | nd | 0 of 9
GFTLCSYHIS | VIYSDGRRTFYGDSVK | GRAAGTSDS | nd / nd / nd | nd | 1 of 9 (4.65)
GFTLNSYGIS | VIYIDGRRTFYGDSVT | HRAAGTFDS | nd / nd / nd | nd | 1 of 9 (2.88)
GFTLHSYGFS | VIYSDGRRTFYGDSVM | GRAAGTFDS | 3.13 / 3.48 / nd | 3.30 | 1 of 9 (5.05)
GFNLNSFGIS | VIYSDGRRTFYGDSVK | GRAAGTFDS | 0.46 / 0.68 / 0.59 | 0.57 | 5 of 9 (4.72)
GFTLNSYGIS | VIYADGRRTFYHDSVK | GSAAGTFDS | 0.09 / 0.39 / 0.18 | 0.22 | 3 of 9 (5.89)
GFTLTSYGIS | VIYSDGRRTFYGDSVK | GAAAWTFDS | 5.54 / 4.62 / nd | 5.08 | 0 of 9
GDTLNSYGIE | VIYSDGRRTFYGDSVK | GRAGGTFDS | nd / 5.32 / nd | 5.32 | 0 of 9
GFTLNSYGIS | VIYSDGRRTFTGDSVK | DRIAGTFDS | nd / nd / nd | nd | 0 of 9
GFTLNSYGIS | VIYVDGRRTFYGDSVL | GRAAGTFHS | nd / 3.73 / nd | 3.73 | 0 of 9
GFTLNSYGIS | VHYSDHGRTFYGDSVK | GRAAGTFDS | 4.42 / nd / nd | 4.42 | 5 of 9 (3.95)
GFTLNSYGIS | VIYSDGRRTFYGDSVK | GRGAGTKDS | 0.45 / 0.76 / 0.72 | 0.64 | 3 of 9 (4.27)
GFTLNSYGIS | VIYSDGRRTFQGDSVK | CRAAGTFVS | 3.74 / 3.09 / nd | 3.41 | 3 of 9 (4.36)
GFTLNSYGIS | VIYDDMRRTFYGDSVK | GRAANTFDS | nd / nd / nd | nd | 0 of 9
GFTLNSYSIS | VIYSDGRRRVYGDSVK | GRAAGTFDS | nd / 3.12 / nd | 3.12 | 4 of 9 (4.57)
GWTLNSYGIS | VIYSDGRREFYGDSVK | LRAAGTFDS | 2.47 / nd / nd | 2.47 | 0 of 9
GFYLNSYGIS | VIYSMGRRTFYGDSVK | IRAAGTFDS | nd / nd / 3.69 | 3.69 | 0 of 9
GFTLNSYFIS | VIYSDGRRTFYGDSVK | GRTAGMFDS | 3.61 / 4.26 / nd | 3.93 | 3 of 9 (4.23)
GFTLNSYGIC | VQYSDGRRTFYGDSVK | GRVAGTFDS | 3.10 / nd / nd | 3.10 | 3 of 9 (4.36)
GFTVNSYGIS | VIYSDGRRTFYGDSVK | GRREGTFDS | 4.71 / 3.66 / 5.50 | 4.62 | 8 of 9 (4.64)

A selection of 5 entries from above:

CDR-H1	CDR-H2	CDR-H3	log10 Kd, replicates	log10 Kd (nM), mean	control signals
GFTLNSYFIS	VIYSDGRRTFYGDSVK	GRTAGMFDS	3.61 / 4.26 / nd	3.93	3 of 9 (4.23)
GFTLNSYGIS	VIYSDGTRTFYGDSVK	GDAAGTFWS	nd / nd / nd	nd	1 of 9 (2.83)
GWTLNSYGIS	VIYSDGRREFYGDSVK	LRAAGTFDS	2.47 / nd / nd	2.47	0 of 9
GFTLNSYGIS	VIYADGRRTFYHDSVK	GSAAGTFDS	0.09 / 0.39 / 0.18	0.22	3 of 9 (5.89)
GFNLNSFGIS	VIYSDGRRTFYGDSVK	GRAAGTFDS	0.46 / 0.68 / 0.59	0.57	5 of 9 (4.72)

Nonspecific signal, from three strains lacking the peptide, appeared in 15% of pairings of library AAYL49, centred on 4.06 (5% of these signals below 2.83); values are not corrected for it. The control count says in how many pairings with the empty strains this scFv gave a signal, with their mean in brackets.

Source: Engelhart et al. 2022 (doi:10.1038/s41597-022-01779-4), MIT Lincoln Laboratory and A-Alpha Bio; data file from the FLAb repository.